What is called IC50 is the concentration needed to halve the response being measured.

Sequences of proteins named here, by UniProt entry; tags and fusion partners are left off.
UniProt Q92800, whole entry: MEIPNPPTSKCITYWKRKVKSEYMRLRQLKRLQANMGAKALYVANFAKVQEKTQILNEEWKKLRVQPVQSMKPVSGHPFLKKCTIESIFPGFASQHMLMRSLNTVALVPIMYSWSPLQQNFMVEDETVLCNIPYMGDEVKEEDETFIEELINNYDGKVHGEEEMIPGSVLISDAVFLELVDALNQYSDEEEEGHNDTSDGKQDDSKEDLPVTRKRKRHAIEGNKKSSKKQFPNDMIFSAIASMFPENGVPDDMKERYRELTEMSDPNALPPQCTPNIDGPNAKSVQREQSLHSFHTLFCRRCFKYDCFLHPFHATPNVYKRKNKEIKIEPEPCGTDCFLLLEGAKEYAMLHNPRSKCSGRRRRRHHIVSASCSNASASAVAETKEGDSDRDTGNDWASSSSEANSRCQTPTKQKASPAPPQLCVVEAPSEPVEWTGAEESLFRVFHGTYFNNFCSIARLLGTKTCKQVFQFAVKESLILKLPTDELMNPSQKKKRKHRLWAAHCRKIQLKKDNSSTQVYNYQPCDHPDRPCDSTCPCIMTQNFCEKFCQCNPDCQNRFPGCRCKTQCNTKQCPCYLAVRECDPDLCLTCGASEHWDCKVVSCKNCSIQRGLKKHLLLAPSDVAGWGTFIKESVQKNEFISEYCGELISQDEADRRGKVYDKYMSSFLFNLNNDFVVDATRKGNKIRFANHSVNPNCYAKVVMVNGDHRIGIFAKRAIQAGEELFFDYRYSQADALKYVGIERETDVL

Experimental findings from patent US12344618B2, “Heterotricyclic derivative compound and use of same” (HANMI PHARMACEUTICAL CO., LTD., priority 2019, dated 2025) are described below.

The target in this assay is T1, EZH1 (Homo sapiens, UniProt Q92800).
T1 construct: purchased Reaction Biology Corp. (contract assay)
Kind of assay: Inhibitory activity against EZH1 methyltransferase (radiometric scintillation proximity assay).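 Further: Read-out is methylation of a substrate peptide, captured on streptavidin-coated SPA beads and counted by scintillation, in Tris-HCl buffer at pH 8.0 with 1% DMSO.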 Type of assay: biochemical. Particulars: 2.3 nmol/L enzyme, 90 minutes, room temperature. (SPA uses beads or plates that emit light when radiolabelled molecules are held near them.)
In turn, `Cc1cc(C)c(CN2CCc3c(Br)c4c(c(C)c3C2=O)OC(C)([C@H]2CC[C@H](N(C)C)CC2)O4)c(=O)[nH]1` (single isomer, unassigned) [Compound 49, 9-bromo-6-((4,6-dimethyl-2-oxo-1,2-dihydropyridin-3-yl)methyl)-2-(trans-4-(dimethylamino)cyclohexyl)-2,4-dimethyl-7,8-dihydro-[1,3]dioxolo[4,5-g]isoquinolin-5(6H)-one] gave an IC50 of 7 to 16 nM.
Under `Cc1cc(C)c(CN2CCc3c(Br)c4c(c(C)c3C2=O)OC(C)([C@H]2CC[C@H](N(C)C)CC2)O4)c(=O)[nH]1` (single isomer, unassigned) [Compound 50, 9-bromo-6-((4,6-dimethyl-2-oxo-1,2-dihydropyridin-3-yl)methyl)-2-(trans-4-(dimethylamino)cyclohexyl)-2,4-dimethyl-7,8-dihydro-[1,3]dioxolo[4,5-g]isoquinolin-5(6H)-one] stands greater than 1000 nM.
The molecule `Cc1cc(C)c(CN2CCc3c(Br)c4c(c(C)c3C2=O)OC(C)([C@H]2CC[C@H](N(C)C)CC2)O4)c(=O)[nH]1` (stereo partly drawn) [Compound 48, 9-bromo-6-((4,6-dimethyl-2-oxo-1,2-dihydropyridin-3-yl)methyl)-2-(trans-4-(dimethylamino)cyclohexyl)-2,4-dimethyl-7,8-dihydro-[1,3]dioxolo[4,5-g]isoquinolin-5(6H)-one] returned an IC50 of 2.6 to 40 nM.
